DT40 TDP1 no CPT: qHTS for Inhibitors of human tyrosyl-DNA phosphodiesterase 1 (TDP1): qHTS in cells in absence of CPT; DT40 Tdp1-/- hTDP1 cells, no CPT, ATP luminescence, 48 h; Potency, µM (highest dose often 46.2 µM), actives largely listed as inhibitors; 420,000 tested, 15% active; further: nearly all actives have a fitted effect of over 55% in size
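Readout: luminescence from CellTiter-Glo after 30 min in the dark at RT. Cells: DT40 Tdp1-/- with stable hTDP1, 400/well. Exposure: compounds alone, ≥48 hr, 37 °C.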
TDP1 block: TDP1 (human) enzyme inhibition; 350,000 tested, 0.28% active; Potency, µM (doses to about 130 µM), hits mostly inhibitors; recombinant TDP1, AlphaScreen DNA substrate cleavage; AID 485290; Q9NUW8; further: nearly all actives have a fitted effect of over 40% in size
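E. coli-derived human Tdp1, 1 nM final. Cpd preinc 15 min RT; substrate 15 nM final, 5 min RT; AS bead mix 10 ug/ml final, 10 min RT. Signal loss = tyrosine-FITC cleavage. No-enzyme wells = max signal.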
miR-21 reporter: raises the signal of a miR-21 reporter | HeLa miR-21 FLuc reporter, luciferase, 48 h | Potency, µM (highest dose often 38.3 µM) | 340,000 tested, under 10 active | AID 2288; active = well fitted rising curve with a large enough effect; inconclusive = small, poorly fitted or top-dose-only effect; inactive = no such curve, though single readings can be large or run the other way;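 also: miR-21 action dims this reporter so a rising signal means less miR-21 action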
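HeLa cells endogenously expressing miR-21, stably carrying CMV-driven firefly luciferase with a downstream miR-21 binding site, 2000 cells/well. Titrations up to approximately 40 uM, 48 hours; luciferase luminescence read.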
TDP1 cell CPT: DT40-hTDP1 cell growth loss with CPT; chicken DT40 Tdp1-/-;hTDP1 cells + 20 nM CPT, ATP luminescence, 48 h; Potency, µM (top dose mostly 46.2 µM), usual class: inhibitors; 420,000 tested, 12% active; further: nearly all actives have a fitted effect of over 55% in size
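Chicken DT40 Tdp1-/- cells complemented with human TDP1, 400 cells/well, exposed to compounds plus 20 nM camptothecin for at least 48 h at 37 C; viability read as ATP content by CellTiter-Glo luminescence.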
uPA surface inh: blocks generation of uPA at the cell surface. cell surface uPA generation assay, qHTS. 330,000 tested, 0.31% active. Potency, µM (top dose mostly 38.3 µM), usual class: inhibitors. AID 540303; active means well fitted inhibition curve with a large enough effect; inconclusive means small, poorly fitted or top-dose-only effect; inactive means no such curve, though single readings can be large or run the other way; tested in mouse RAW 264.7 cells; further: nearly all actives have a fitted effect of over 55% in size
Hits are given with their value; i = inactive; ? = inconclusive; nt = no result given; ! = a repeat was not active; [ ] = another dose, or the depositor's remark. Compounds with a hit are over-represented: about 16% of the library has one in this group of screens. Unless noted, the call rests on the fitted dose curve; in most records, active means well fitted curve in the direction sought with a large enough effect; inconclusive means small, poorly fitted or top-dose-only effect, or another doubt; inactive means no such curve, though single readings can be large; an effect the other way counts as inactive or inconclusive.

SMILES	DT40 TDP1 no CPT	TDP1 block	miR-21 reporter	TDP1 cell CPT	uPA surface inh
Cc1cc2ccccc2n1-c1ccc(C(=O)N2CCC(C(=O)NCc3ccc(Cl)cc3)CC2)s1	3.7µM	i	?	4.1µM	nt
CCCCCn1c(=O)c(C(=O)NCc2ccc(Cl)cc2)c(O)c2ccccc21	?	nt	i	?	i
COC(=O)C1=C(c2cc3ccccc3s2)C[C@@H]2CC[C@H]1N2C(=O)NCc1ccc(F)cc1	nt	nt	nt	?	i
C(#CCN1CCCCC1)CN1CCCCC1	i	nt	nt	i	nt
CC[C@@]1(O)C(=O)OCc2c1cc1n(c2=O)Cc2cc3c(N)cccc3nc2-1	0.13µM	?	?	0.16µM	i
C=CCn1c(O)c(C(C)=NCCCN(C)C)c(=O)[nH]c1=O	i	i	i	i	i
CC[C@H](CO)Nc1nc(NCc2ccccc2)c2ncn(C(C)C)c2n1	22µM!	i	nt	25µM	nt
COc1ccc(Cl)cc1NC(=O)CN(C)C(=O)c1ccc(N2CCCCC2)c([N+](=O)[O-])c1	16µM	nt	nt	9.2µM	?
Cc1ccc(S(=O)(=O)N(C)N=O)cc1	i	nt	nt	i	i
COC(=O)C1=C(c2ccc(-c3ccccc3)c(F)c2)C[C@@H]2CC[C@H]1N2C(=O)NCCOc1ccccc1	21µM	i	nt	21µM	?
COCCNC(=O)N1[C@H]2CC[C@@H]1C(C(=O)OC)=C(c1ccc(-c3ccccc3)c(F)c1)C2	1.8µM	i	nt	1.8µM	i
Cc1ccc2cc(C=C(C#N)C#N)c(Cl)nc2c1	2.9µM	i	i	2.1µM	i
Cc1cc(N2CCCC2)ccc1C=C(C#N)C#N	i	i	i	i	i
COc1ccc(C2C([N+](=O)[O-])=C(N)Oc3c2c(=O)oc2ccccc32)cc1 (stereo unspecified)	nt	i	i	nt	nt
O=C(Nc1ccc(Br)cc1)c1nn(C23CC4CC(CC(C4)C2)C3)cc1Br	15µM	i	i	?	i
ClCc1ccccn1	nt	i	nt	nt	nt
COc1cc2c(cc1OC)CN(c1ccc([N+](=O)[O-])c(C(F)(F)F)c1)CC2	21µM	i	?	16µM	i
Cc1ccc2c(c1)C1CN(C)CCC1N2C(=O)c1cccnc1Cl (stereo unspecified)	i	i	i	i	i
Cc1ccc2c(c1)C1CN(C)CCC1N2C(=O)COc1ccc(N(C)C(=O)C(C)(C)C)cc1 (stereo unspecified)	18µM	i	i	?	i
Cc1ccc2c(c1)[C@@H]1CN(C)CC[C@@H]1N2C(=O)Nc1cccc(C(F)(F)F)c1	11µM	i	i	11µM	nt
Cc1ccc2c(c1)C1CN(C)CCC1N2C(=O)c1cn(-c2ccccc2)nc1-c1ccccc1 (stereo unspecified)	16µM	i	i	?	?
Cc1ccc2c(c1)C1CN(C)CCC1N2C(=O)Nc1cccc(C(F)(F)F)c1 (stereo unspecified)	?	i	i	21µM	i
Cc1ccc2c(c1)C1CN(C)CCC1N2C(=O)CCCN1C(=O)c2cccc3cccc(c23)C1=O (stereo unspecified)	?	i	i	i	i
Cn1cnc(CCN)c1	i	nt	nt	i	i
O=C(COc1ccc(Br)cc1)Nc1ccc(Cl)cc1C(=O)c1ccccc1	i	i[12.3 µM]	i	i	nt
SMILES	DT40 TDP1 no CPT	TDP1 block	miR-21 reporter	TDP1 cell CPT	uPA surface inh
CC1O[C@@H](OC2CC[C@@]3(C=O)C4CC[C@]5(C)C(C6=CC(=O)OC6)CC[C@@]5(O)C4CC[C@]3(O)C2)C(O)C(O)C1O (stereo partly specified)	0.58µM	i	nt	0.46µM	nt
C[C@@H]1O[C@@H](O[C@H]2CC[C@]3(C=O)C4CC[C@]5(C)[C@@H](C6=CC(=O)OC6)CC[C@]5(O)[C@@H]4CC[C@]3(O)C2)[C@H](O)[C@H](O)[C@H]1O (stereo partly specified)	0.33µM	i	nt	0.37µM	nt
C[C@]12CCC3C(CC[C@]4(O)CC(O)CC[C@@]34C=O)[C@]1(O)CCC2C1=CC(=O)OC1 (stereo partly specified)	i	i	nt	i	nt
Cc1ccc(-c2cc(C(F)F)n3ncc(C(=O)N4CCc5ccccc5C4)c3n2)cc1	26µM	i	i	?	i
CCC(C)(C)n1nnnc1C(c1cccs1)N1CC=C(c2ccc(F)cc2)CC1 (stereo unspecified)	?	i	i	23µM	i
O=[N+]([O-])c1ccc(-c2ccccc2)c([As](=O)(O)O)c1	9.2µM	i	i	13µM	i
COC(=O)c1cccc(NC(=O)N2C[C@H]3C[C@@H](C2)c2cccc(=O)n2C3)c1	i	nt	i	i	i
CCN(CC)C(=O)N[C@@H]1C=C2c3cccc4[nH]cc(c34)C[C@@H]2N(C)C1	9.4µM	nt	nt	21µM	nt
Cc1ccc(NC(=O)Nc2ccc3nc(N4CCN(C)CC4)cc(C)c3c2)cc1F	4.1µM	i	?	5.2µM	nt
COc1ccc(/C=C/C(=O)Nc2ccc(C)cc2)cc1	?	i[12.3 µM]	i	i	nt
Cc1cc(N2CCCCC2)nc2ccc(NC(=O)/C=C/c3ccc(OC(C)C)cc3)cc12	7.3µM	i	i	9.2µM	nt

Screening results from PubChem BioAssay.
